{"source": "paper PMC11582101", "about": "“Unlocking the potential: unveiling tyrphostins with Michael-reactive cyanoacrylate motif as promising inhibitors of human 5-lipoxygenase” (Pflugers Archiv, 2024)", "target": "T1, recombinant human 5-LO (r5-LO_WT) (Homo sapiens, UniProt P09917)", "T1 sequence (P09917 1-674)": "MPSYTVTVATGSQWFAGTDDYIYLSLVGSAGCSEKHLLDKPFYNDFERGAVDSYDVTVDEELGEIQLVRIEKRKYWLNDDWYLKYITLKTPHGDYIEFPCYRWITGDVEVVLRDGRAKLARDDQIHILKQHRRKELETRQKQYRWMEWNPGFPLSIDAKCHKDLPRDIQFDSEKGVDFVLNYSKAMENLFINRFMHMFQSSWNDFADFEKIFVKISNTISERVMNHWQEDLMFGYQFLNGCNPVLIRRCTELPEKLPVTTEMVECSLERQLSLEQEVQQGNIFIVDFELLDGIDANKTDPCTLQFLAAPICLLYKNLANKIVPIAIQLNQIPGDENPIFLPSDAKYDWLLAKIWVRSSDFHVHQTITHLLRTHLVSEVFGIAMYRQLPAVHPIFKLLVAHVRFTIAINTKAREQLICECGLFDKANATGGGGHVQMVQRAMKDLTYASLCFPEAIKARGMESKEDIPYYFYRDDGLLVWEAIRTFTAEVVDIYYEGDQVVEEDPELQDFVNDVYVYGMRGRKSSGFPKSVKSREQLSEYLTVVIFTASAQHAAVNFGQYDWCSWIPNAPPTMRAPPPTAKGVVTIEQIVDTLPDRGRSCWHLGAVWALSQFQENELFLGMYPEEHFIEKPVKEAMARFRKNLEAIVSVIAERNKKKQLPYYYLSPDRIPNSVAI", "assay": "biochemical", "conditions": "IC50 for inhibition of 5-LO product formation"}
{"smiles": "CC(C)(C)c1cc(C=C(C#N)C#N)cc(C(C)(C)C)c1O", "note": "[Tyrphostin A9]", "values": [{"measurement": "IC50", "result": 800, "unit": "nM"}]}
